Test results taken from ChEMBL document CHEMBL3997829, “Discovery of novel substituted octahydropyrrolo[3,4-c]pyrroles as dual orexin receptor antagonists for insomnia treatment” (Bioorg Med Chem Lett, 2017).

Protein sequences, listed by entry. Tags and fused reporters are not part of them.
UniProt O43613, whole entry: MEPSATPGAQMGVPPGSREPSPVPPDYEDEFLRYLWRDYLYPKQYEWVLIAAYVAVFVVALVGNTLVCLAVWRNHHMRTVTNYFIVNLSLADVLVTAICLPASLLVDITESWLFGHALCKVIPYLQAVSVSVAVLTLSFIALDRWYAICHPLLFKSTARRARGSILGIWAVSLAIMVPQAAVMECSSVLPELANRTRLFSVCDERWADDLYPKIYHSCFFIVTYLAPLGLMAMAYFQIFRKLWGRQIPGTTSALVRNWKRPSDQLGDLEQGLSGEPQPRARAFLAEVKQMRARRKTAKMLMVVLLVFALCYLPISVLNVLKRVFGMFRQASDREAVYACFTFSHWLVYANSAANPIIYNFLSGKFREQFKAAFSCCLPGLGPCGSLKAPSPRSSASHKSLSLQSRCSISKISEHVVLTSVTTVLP

Target: Orexin/Hypocretin receptor type 1 (Homo sapiens, UniProt O43613)
Test: Antagonist activity at human orexin 1 receptor expressed in HEK293 cells assessed as inhibition of orexin-induced calcium mobilization after 60 mins by FLIPR assay
Type: functional, cell-based

Cc1ccc(-n2nccn2)c(C(=O)N2CCN(c3nc4cc(Cl)ccc4o3)CC[C@H]2C)c1 [SUVOREXANT]
IC50: 199 nM
